Laboratory results taken from BindingDB's records for doi:10.1021/acsmedchemlett.7b00293 (Novartis Institutes For Biomedical Research, 2017).

Assays:
[1] = Inhibition of PI3Kdelta in anti-CD3/CD28 stimulated human PBMC derived CD4-positive T cells assessed as reduction in cell proliferation by measuring [3H]thymidine incorporation by beta counting method
[2] = Inhibition of PI3Kdelta in human PBMC assessed as reduction in cell proliferation by measuring [3H]thymidine incorporation measured last 16 hrs of 4 days incubation by beta counting based mixed lymphocyte reaction assay
[3] = Inhibition of PI3Kdelta in anti-CD3 stimulated human PBMC assessed as reduction in cell proliferation by measuring [3H]thymidine incorporation pretreated for 1 hr followed by anti-CD3 addition measured last 16 hrs of 56 hrs incubation by beta counting method

IC50 [1]: 1150 nM
IC50 [2]: 79 nM
IC50 [3]: 159 nM
Structure (SMILES): CCC(=O)N1CC[C@H](Nc2ncnc3c2CN(c2cnc(OC)c(C(F)(F)F)c2)CC3)C1 [US8653092, 67]
